The values that follow come from patent US8263590B2, “Pyrimidine derivatives” (priority 2003, dated 2012).

In the assay the test system is Jurkat T human leukemic cell line. Nature of the assay: In vitro T cell migration assay. It is filed as cell-based. Conditions: read-out: T Cell Migration IC50.

For the molecule `CCCS(=O)(=O)c1ccccc1Nc1nc(Nc2cc(N3CCC(N4CCOCC4)CC3)ccc2OC)ncc1Cl`, the IC50 turned out to be 230 nM.
